Entries after “also recorded” stand apart in the source; their conditions may differ.
Columns and labels:
[1] = tested on: HER2+ breast cancer cells (CRL2351); experiment: Cytokine secretion of interferon treated HER2 CAR macrophages in co-culture (MSD); assay type: cell-based, human; conditions: 150 nM CAR mRNA, E:T 3:1, 48 hours co-culture
Description: To evaluate whether interferon treatment of macrophages improved other anti-tumor functions, the cytokine secretion of interferon treated or untreated mRNA transfected HER2 CAR macrophages after co-culture with HER2+ breast cancer cells was evaluated. Human macrophages were electroporated with 150 nM HER2 CAR mRNA comprising m6AGCap1 and PsU modifications. HER2+ breast cancer cells (CRL2351) were co-cultured with CAR macrophages after the macrophages were transfected with the CAR mRNA at an Effector (CAR macrophage) to Target (cancer cell) ratio of 3:1. Supernatant was collected 48 hours after the cancer cells and macrophages were co-cultured and cytokine levels were measured using a Meso Scale Discovery (MSD) instrument.

human macrophages = experiment: Viability, CAR expression and M1/M2 markers of HER2 CAR mRNA electroporated macrophages cultured with cytokines; assay type: cell-based
Description: (§1) Human macrophages were electroporated with HER2 CAR mRNA comprising m6AGCap1 and PsU modifications. Cells were cultured with cytokines that induce an M1 phenotype such as IFN-alpha, IFN-beta, IFN-gamma, IFN-gamma plus lipopolysaccharide (LPS), TNF-alpha, IL-6 or a STING ligand (STING-L) for up to 48 hours and then cytokines were washed off and fresh media was added. CAR expression and M1 marker expression were measured on days 2 and 7 after transfection. Fluorescent labeled HER2+ breast cancer cells (CRL2351) were co-cultured with HER2 CAR macrophages two days after the macrophages were transfected. Cancer cell growth was monitored via its fluorescence on an Incucyte® live imaging microscope every four hours. The Effector (CAR macrophage) to Target (cancer cell) ratio was 5:1.
(§2) Five different mRNA modifications were also tested to determine if interferon treatment differentially affected macrophages transfected with mRNA comprising different modifications. Human macrophages were electroporated with HER2 CAR mRNA comprising different mRNA modifications. CAR expression and M1 markers were detected by Flow Cytometry (Attune) on day four after electroporation. Day 4 CAR macrophage cells were then co-cultured with a Nuc-Light labeled, HER2+ breast cancer cell line (CRL2351) at an Effector (CAR macrophage) to Target (cancer cell) ratio of 5:1. Cancer cell growth was monitored via its fluorescence on an Incucyte® live imaging microscope every four hours.
To further evaluate the impact of IFN-β on CAR persistence, human macrophages electroporated with m6AGCap1/PsU mRNA encoding a HER2 CAR were evaluated on day 2 and day 7.
In order to validate the effect of IFN-β treatment on improved CAR expression, and to optimize the IFN-β concentration, macrophages transfected with M6AGCap1/PsU modified mRNA were treated with 0, 3, 10, 30, or 100 ng/mL IFN-β for 4 hours and the viability, CAR percentage, and CAR MFI were evaluated on day 4 and day 7 post electroporation.
Given that macrophage phenotype is considered plastic, and immunosuppressive cytokines such as IL-10 are known to induce an M2 phenotype, the impact of IL-10 treatment on IFN-β treated or untreated HER2 CAR mRNA transfected macrophages was evaluated.
Additional studies were performed to determine if treatment with interferons could further improve CAR mRNA persistence in macrophages and if CAR macrophage functionality could be extended. Human macrophages were electroporated with 300 nM CAR mRNA comprising m6AGCap1 and PsU modifications. Cells were cultured with 20 ng/mL IFNs for 24 hours and then the cells were washed to remove cytokines. CAR expression was detected by Flow Cytometry (Attune) on day 2 after transfection. Cells were then co-cultured with a Nuc-Light labeled, HER2+ breast cancer cell line (CRL2351) at the Effector to Target ratio of 3:1. Cancer cell growth was monitored via its fluorescence on an Incucyte® live imaging microscope. CAR expression and M1 markers in macrophages were detected by Flow Cytometry (Attune) on day 7 after transfection.

[2] = tested on: HER2+ breast cancer cells (CRL2351); experiment: Cancer cell killing by cytokine treated HER2 CAR macrophages (Incucyte); assay type: cell-based, human
Description: as §1, §2
To evaluate the anti-tumor function of macrophages transfected with mRNA encoding a HER2 CAR with or without priming with IFN-β, untransduced (UTD) or CAR macrophages were primed with 0, 3, 10, 30, or 100 ng/mL IFN-β for 4 hours or 20 hours. These effector cells were then co-cultured with the HER2+ breast cancer cell line CRL2351-GFP at an effector to target ratio of 3:1 or 1.5:1 and anti-tumor activity was measured based on GFP expression using an Incucyte® live imaging microscope. […] To evaluate whether the improved mRNA-transfected CAR macrophage anti-tumor effect was universal to all interferons or only interferon beta, macrophages electroporated with M6AGCap1/PsU mRNA were treated with IFN-alpha, beta, or gamma and evaluated for their cancer cell killing ability.
Additional studies were performed to determine if treatment with interferons could further improve CAR mRNA persistence in macrophages and if CAR macrophage functionality could be extended. […] CAR expression was detected by Flow Cytometry (Attune) on day 2 after transfection. […] Cancer cell growth was monitored via its fluorescence on an Incucyte® live imaging microscope. CAR expression and M1 markers in macrophages were detected by Flow Cytometry (Attune) on day 7 after transfection.

[3] = 48 hours and 7 days post-treatment with IL-10
[4] = mRNA transfected CAR macrophages

B1: IFN-β: interferon cytokine that induces an M1 phenotype (protein, UniProt P01574 22-187, looked up)
Interferon beta: MSYNLLGFLQRSSNFQCQKLLWQLNGRLEYCLKDRMNFDIPEEIKQLQQFQKEDAALTIYEMLQNIFAIFRQDSSSTGWNETIVENLLANVYHQINHLKTVLEEKLEKEDFTRGKLMSSLHLKRYYGRILHYLKAKEYSHCAWTIVRVEILRNFYFINRLTGYLRN
secretion of the cytokines IL-6, IL-8 and TNFα [1]: increased secretion
persistence of M1 phenotype post treatment (human macrophages): at least 7 days
CAR expression (CAR percentage, CAR MFI) (human macrophages; 0, 3, 10, 30, or 100 ng/mL for 4 hours, day 4 and day 7): dose-dependent effect
induction of M1 markers CD80, CD86, and HLA-DR (human macrophages; 0-100 ng/mL): dose-dependent
M1 marker CD86 after IL-10 (human macrophages; [3]): retaining expression of the M1 marker CD86
resistance to IL-10 / M2 inducing factors (M2 marker CD163) (human macrophages; [3]): did not express the M2 marker CD163; also recorded: resisted other M2 inducing factors as well
CAR expression (human macrophages; Day 7): higher CAR expression than macrophages treated with control media, IFN-α, or IFN-γ
CAR expression (human macrophages; day 2): higher CAR expression than macrophages treated with control media, IFN-α or IFN-γ
HER2 CAR expression (human macrophages; day 7, 20 ng/mL IFNs for 24 hours): expressed the highest level of CAR by a significant margin
CAR expression rate (human macrophages; day 7, m6AGCap1/PsU mRNA, vs not treated): significantly improved CAR expression rate on day 7
expression of M1 markers CD80, CD86 and HLA-DR (human macrophages; day 7, vs no interferon): increased
M1 phenotype (based on CD86 expression) (human macrophages; [4]): induction of an M1 phenotype; also recorded: strongest M1 phenotype of the interferons evaluated
M2 markers (based on CD163 expression) (human macrophages; [4]): reduction of M2 markers
cancer cell killing by primed CAR macrophages ([2]; 0-100 ng/mL for 4 or 20 hours, E:T 3:1 or 1.5:1): improved ability for CAR macrophages to kill cancer cells
cancer cell killing, comparison of interferons ([2]; M6AGCap1/PsU mRNA): best cancer cell killing, with a greater effect than IFN-α or IFN-γ
cancer cell killing ([2]; assay 7 days post-electroporation, 72 hours co-culture): highest level of cancer killing
anti-tumor activity of CAR macrophages electroporated with modified mRNAs ([2]; with or without treatment): improved anti-tumor activity for all CAR macrophages except those transfected with 5moU mRNA

From patent publication US11739297B2, “Method of increasing tumor killing activity of macrophages or monocytes comprising chimeric antigen receptor” (Carisma Therapeutics Inc., priority 2020, dated 2023)
